# Binding of CDR-mutated scFvs to a peptide of the spike HR2 region

From the AlphaSeq antibody data of Engelhart et al. 2022 (doi:10.1038/s41597-022-01779-4), copy in the FLAb collection.

The target is the same throughout: PDVDLGDISGINAS, from the HR2 region of SARS-CoV-2 spike.

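The parent was found by panning a naive human phage display library on the peptide. In library AAYL52, one, two or three CDR residues were substituted; doubles and triples were drawn at random. AlphaSeq pools MATa yeast showing the antibodies with MATalpha yeast showing the peptide. Mating (16 h, 30 °C) was followed by selection of diploids and sequencing of their barcodes. Read counts were normalised to the haploid input and turned into Kd by a linear fit to BCL2-family pairs of known affinity, for each replicate. There are three technical replicates.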

Parent scFv Ab-95: VH joined to VL by the linker GGGGSGGGGSGGGGS. Changes lie in the light chain CDRs alone.
VH: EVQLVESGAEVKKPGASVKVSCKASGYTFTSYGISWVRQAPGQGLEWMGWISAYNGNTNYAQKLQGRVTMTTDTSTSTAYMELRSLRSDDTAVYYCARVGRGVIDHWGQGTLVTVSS
VL: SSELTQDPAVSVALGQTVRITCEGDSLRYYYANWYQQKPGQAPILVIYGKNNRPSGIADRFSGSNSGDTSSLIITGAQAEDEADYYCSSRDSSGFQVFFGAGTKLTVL

Variants are written as CDR1, CDR2 and CDR3 of the light chain (limits as in the source). Parent: EGDSLRYYYAN, GKNNRPS, SSRDSSGFQVF.
Every variant below is changed at F98 of the VL (sequential numbering).
Affinities are written as log10 Kd with Kd in nM; a lower number is a better binder.
"nd" means that the variant was in the library but no mating with the target was seen in that replicate; the authors take this as a sign of poor binding, and no number exists.
Three control strains display no target. For library AAYL52, 28% of the pairings with them gave a signal, with a median of 3.91 and one signal in twenty below 2.90, so weak values seen in few replicates may be background.
Parent in this assay: reference entry 2.31, copy in this library 2.25.

Variant EGDSLSYYYAN | GKNNRPS | SSRDSSSFQVE gave 2.71, 3.89, 2.52. Variant EGDSLRYYYAN | GKNNTPS | SSRDSSKFQVH showed 3.72, 3.50, 3.01. Variant LGDSLRYYDAN | GKNNRPS | SSRDSSGFQVK gave 1.56, 1.44, 1.33. Variant EGDKLRYYYAQ | GKNNRPS | SSRDSSGFQVY showed nd, 3.14, nd. For EGDSLRYYYAN | GKNNRHS | SSRDSSGFQVG, the assay gave 2.49, 2.69, 2.38. Variant EGDSLRYYYAN | GKNNRPS | SPRDSKGFQVR showed 2.27, 2.04, 1.79. With EGDSLRYYYAN | GWNNRPS | SSRDMSGFQVA the result was 3.63, nd, nd.

With EGDKLRYYYAN | GKNDRPS | SSRDSSGFQVQ the result was nd, 3.97, nd. For EGDSLRYYYAN | GKNNRPS | SSQDSSGFQMS, the assay gave 2.39, 2.82, 1.59. Variant EGDSLRYYYAN | GKNNRPS | SSRDSSGMQVT showed 2.32, 2.23, 2.51. Variant ERDSLVYYYAN | GKNNRPS | SSRDSSGFQVW gave 3.15, nd, 4.67. For EGDSLRYYAAN | GKNNRPS | SSRRSSGFQVA, the assay gave 2.95, 2.53, 2.43. Variant EGDSLRYYYAN | GKNNRPS | GSRSSSGFQVL showed 2.51, 2.71, 2.26. Variant EGDSLRYYYAN | GKQNRPS | ASRDSSGFQVN gave nd, 3.07, nd.

Variant EGDSHRYYYAN | GKNNRPS | SSRDSSGFQVM showed 2.62, 3.12, 3.88. With EGDSLRYYYAN | GKNNRPS | SMRDSSGFQIS the result was 4.39, 3.73, 4.56. Variant EGDSLYYYYAN | GKNNRPS | SSTDSSGFQVH showed nd, 4.50, 4.52. Variant EGDSLRYYYAN | GKNNRPS | SCRDSSGFQVD showed 2.95, 2.46, 2.75. Variant EGDSLRYYYAN | GKNNRVS | SSRDSSGFIVS showed nd, nd, 2.83. With EGDSLRYYYAN | GKNHRPS | SSMDSSGFQVK the result was nd, nd, nd. Variant EGDSLRYYYAC | GKNNRPS | SSRDSSGFQVW showed 4.60, 5.38, nd.

Variant EGDSLRYYYAN | GKNNRPR | SSRDSSGFQVT gave 3.33, 3.04, 2.79. Variant EGDSLRYYYAN | GKNNRGS | SSRDSSGFQVL showed 3.03, 3.01, 3.69. Variant EGDSLRYYYAI | GKNNRLS | SSRDSSGFQVV gave 3.91, nd, nd. For EGDSLRYYYAN | GKNNRPS | SSRDSSGFQVP, the assay gave 2.57, 2.46, 2.46. Variant EGDSLRYYYAN | GENNRPS | HSRDSSGFQVC showed nd, nd, nd. Variant EGDSLRYYYAN | GKNNRTS | SSCDSSGFQVY showed nd, 4.12, 3.80. With LGFSLRYYYAN | GKNNRPS | SSRDSSGFQVE the result was 5.48, 4.64, nd.

Variant EIDSLRYYYAN | GKNNRPS | SSRDSSGFQVY gave nd, 4.20, 3.28. Variant EGDSLRYYYAN | GKNNRPS | SSRGFSGFQVN showed 3.39, 3.27, 2.39. For EGDSLRYYYAN | FKNNRPS | SSRDSSGFQIC, the assay gave 3.04, nd, nd. Variant EGDSLRYYYAS | GKNNRPS | SDRDSSGFQVP showed 3.02, nd, 4.13. Variant EGDSLRYYHAN | GANNRPS | SSRDSSGFQVD showed 3.06, 2.59, 3.04. With EGDSLRYYYAC | GKNNRPS | ASRDSSGFQVE the result was nd, nd, nd. Variant EGDSCRYYYAN | GKNNRPS | SSPDSSGFQVE showed nd, nd, nd.

Variant EADSLRYYYAN | GKNNRPS | SRRDSSGFQVV showed 3.65, 3.42, nd. Variant EGDSLRYYYAN | GKCNMPS | SSRDSSGFQVK gave nd, 5.94, nd. Variant EGDSLRYYYAN | GKLNRPS | SSRDSEGFQVI showed 3.81, nd, nd. With EGDSERYYYAN | GKNNRPS | SSRDSSGFQVI the result was 4.20, 4.62, nd.

4 of these entries, quoted again:

CDR-L1	CDR-L2	CDR-L3	log10 Kd (nM) by replicate
EGDSLRYYYAN	FKNNRPS	SSRDSSGFQIC	3.04, nd, nd
EGDSLRYYYAN	GKNNRGS	SSRDSSGFQVL	3.03, 3.01, 3.69
LGFSLRYYYAN	GKNNRPS	SSRDSSGFQVE	5.48, 4.64, nd
EGDSLRYYYAN	GKLNRPS	SSRDSEGFQVI	3.81, nd, nd